{"sequences": {"note": "The chains behind the UniProt entries cited, without tags or fusion partners.", "UniProt P53350, whole entry": "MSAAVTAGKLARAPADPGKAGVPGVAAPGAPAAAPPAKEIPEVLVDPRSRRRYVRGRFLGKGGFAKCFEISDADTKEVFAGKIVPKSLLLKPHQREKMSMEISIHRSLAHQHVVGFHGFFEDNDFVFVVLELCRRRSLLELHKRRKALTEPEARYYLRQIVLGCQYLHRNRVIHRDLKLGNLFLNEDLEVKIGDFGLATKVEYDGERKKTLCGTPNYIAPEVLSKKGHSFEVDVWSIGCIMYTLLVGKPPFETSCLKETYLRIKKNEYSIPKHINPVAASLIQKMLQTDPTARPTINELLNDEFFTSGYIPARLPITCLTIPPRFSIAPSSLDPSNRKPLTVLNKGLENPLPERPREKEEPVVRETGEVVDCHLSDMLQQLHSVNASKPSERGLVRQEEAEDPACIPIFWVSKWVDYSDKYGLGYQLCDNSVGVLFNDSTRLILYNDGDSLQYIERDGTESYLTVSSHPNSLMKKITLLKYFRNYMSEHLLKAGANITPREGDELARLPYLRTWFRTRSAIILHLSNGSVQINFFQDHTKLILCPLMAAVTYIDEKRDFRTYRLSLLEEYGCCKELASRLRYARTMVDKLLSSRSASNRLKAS"}, "source": "patent US7517873B2", "about": "“Substituted pyrimidodiazepines” (Hoffman-La Roche Inc., priority 2007, dated 2009)", "target": "T1, GST-PLK1 (Homo sapiens, UniProt P53350)", "T1 construct": "Full-length, active GST-PLK1 is purified from Sf9 insect cells; made in house; host or cells: Sf9 insect cells", "test": "Biochemical Characterization Assay: GST-PLK1 kinase HTRF assay with GST-p53 substrate", "description": "Biochemical Characterization Assay\nFull-length, active GST-PLK1 is purified from Sf9 insect cells, and full-length GST-p53 is purified from E. coli. Anti-phospho p53 antibody is from Cell Signaling Technology. Europium-conjugated anti-rabbit antibody is from PerkinElmer Life and Analytical Sciences. APC-conjugated anti-GST antibody is from Prozyme.\nTo assay compounds of the invention, two microliters of test compound (0.6 nM-4 mM) in DMSO or plain DMSO for control wells, 38 microliters of 20 mM HEPES pH 7, 50 mM NaCl, 10 mM MgCl2, 0.5 mM TCEP, 0.1 mM sodium orthovanadate, 0.1 mg/mL BSA, and 0.05% Triton X-100 (Kinase Assay Buffer) are added. […] Six microliters of GST-PLK1 (3 ug/mL) in Kinase Assay Buffer are then added and the solution incubated at 37° C. for 35 minutes. Six microliters of solution containing 43 mM EDTA to stop the reaction and a 1:600 dilution of anti-phospho-p53 antibody in 20 mM HEPES pH 7, 50 mM NaCl, and 0.5 mg/mL BSA (Antibody Binding Buffer) are added and the solution incubated at 37° C. for 30 minutes. […] The HTRF signal is read on an Envision reader from PerkinElmer Life and Analytical Sciences.", "data": [{"smiles": "COc1cc(C(=O)NC2CCN(C)CC2)ccc1Nc1ncc2c(n1)N(C1CCCCC1)CCC(=O)N2C", "note": "[I-20, 4-(9-Cyclohexyl-5-methyl-6-oxo-6,7,8,9-tetrahydro-5H-pyrimido[4,5-b][1,4]diazepin-2-ylamino)-3-methoxy-N-(1-methyl-piperidin-4-yl)-benzamide]", "values": [{"measurement": "IC50", "value": "< 500", "unit": "nM"}]}]}
